Assay results from patent US11696928B2, “Compounds and use thereof in the expansion of stem cells and/or progenitor cells” (UNIVERSITE DE MONTREAL, priority 2017, dated 2023).
pIC50: −log10 of the molar value.

By UniProt entry, the sequences of proteins in these tests, tags left out. Residues count along the entry.
UniProt P35869, 11-848 limits assumed: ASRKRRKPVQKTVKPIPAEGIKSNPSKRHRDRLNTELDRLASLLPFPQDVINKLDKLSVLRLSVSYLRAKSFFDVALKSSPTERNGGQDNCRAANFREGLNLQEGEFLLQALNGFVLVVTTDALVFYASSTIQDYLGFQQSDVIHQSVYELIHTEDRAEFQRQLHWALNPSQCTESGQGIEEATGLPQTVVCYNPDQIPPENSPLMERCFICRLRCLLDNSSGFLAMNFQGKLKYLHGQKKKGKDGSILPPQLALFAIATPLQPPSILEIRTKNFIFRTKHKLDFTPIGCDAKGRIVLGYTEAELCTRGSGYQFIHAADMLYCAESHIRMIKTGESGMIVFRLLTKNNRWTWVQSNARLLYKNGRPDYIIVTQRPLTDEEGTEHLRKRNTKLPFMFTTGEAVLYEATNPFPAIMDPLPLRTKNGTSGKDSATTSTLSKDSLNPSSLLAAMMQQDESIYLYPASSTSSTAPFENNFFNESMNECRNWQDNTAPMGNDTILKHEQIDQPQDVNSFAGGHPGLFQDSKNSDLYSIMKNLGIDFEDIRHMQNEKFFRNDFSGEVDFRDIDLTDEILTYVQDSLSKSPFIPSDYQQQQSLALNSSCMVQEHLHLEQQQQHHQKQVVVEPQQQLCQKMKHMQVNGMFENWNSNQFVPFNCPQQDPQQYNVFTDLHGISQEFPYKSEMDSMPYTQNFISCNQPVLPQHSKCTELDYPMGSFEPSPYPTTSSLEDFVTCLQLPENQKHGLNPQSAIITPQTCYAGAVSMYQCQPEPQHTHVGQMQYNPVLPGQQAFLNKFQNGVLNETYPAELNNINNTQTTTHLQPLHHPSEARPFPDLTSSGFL

Assays:
[1] = target: AhR (Homo sapiens, UniProt P35869); test: Inhibition of AhR-mediated gene transcription (HEK-XRE 11.1 luciferase reporter, MeBIO induction); type: cell-based; details: read-out: AHR; HEK-XRE 11.1 cells, MeBIO 0.1 nM, luminescence after 24 hours; Table 1
Experimental: HEK cells line was transfected with an AhR-responsive firefly luciferase reporter gene X4-4.27 and the stable transfectants generated were again transfected with phRL-CMV (a Renilla luciferase expression vector; Promega) along with pBAsi-hU6 Pur DNA (a plasmid carrying the puromycin-resistant gene; TaKaRa, Shiga, Japan), and maintained in the presence of both hygromycin B and puromycin (2 mg/mL). One of the resultant clones was named HEK-XRE 11.1, and used in the reporter gene assays.
HEK-XRE 11.1 cells were plated in 384-well plates at a density of 25,000 cells in 50 uL volume per well. The induction of ARh pathway was done by addition of MeBIO at 0.1 nM concentration. ARh antagonist compounds were then added to seeded cells in serial dilutions (8 dilutions, 1:[…] down to 5 nM) in duplicate wells. Renilla expression was not used as internal control. On each plate, Compound 1001 and SR1 were added as dose control (8 dilutions, 1:3, 5 mM down to 2.5 nM for SR1 and 2 mM down to 1 nM for compound 1001). Luminescence activity was evaluated after 24 hours culture using Lumi-384-CellTiterGlo-Corning protocol. Dose-response curves were generated using nonlinear regression in Excel.

[2] = system: Human CD34+ cord blood (CB) cells; test: CD34+ activity assessment (7-day expansion of pre-expanded CD34+ cells, flow cytometry); details: concentration at which compound/vehicle ratio of CD34+ cell number is >= 1.5; 7 days, with 35 nM UM0128171; Table 1
Experimental: Human CD34+ cord blood (CB) cells were isolated from fresh units using RosetteSep™ 0034 pre-enrichment cocktail followed by CD34 positive selection using EasySep Kit™ (StemCell Technologies). The cells were then pre-expanded in bulk, by culturing at 37° C. for 6 days in HSC expansion media consisting of StemSpan ACF (StemCell Technologies) supplemented with 100 ng/mL Stem Cell Factor (SCF, Shenandoah), 100 ng/mL FMS-like Tyrosine Kinase 3 Ligand (FLT3L, Shenandoah), 50 ng/mL Thrombopoietin (TPO, Shenandoah), 2 mM GlutaMAX™ (Invitrogen), 10 μg/mL low density lipoproteins (LDL, StemCell Technologies), 10 μg/mL Ciprofloxacin and 35 nM UM0128171. […] Following the pre-expansion, cells were harvested, aliquoted and frozen until use.
For each activity assessment, CD34+ pre-expanded cells (approximately 2000 per well in a 384-well plate) were cultured in HSC expansion media, in the presence of 35 nM UM0128171. Compounds were serially diluted (1/2) in DMSO (10 dilutions per compound) and added to the cells in order to achieve a 1/1000 final dilution. StemRegenin1 (SR1) and/or Compound 1001 were included in all experiments as controls to monitor assay performance. The plate was incubated at 37° C. for 7 days in static conditions (i.e. no shaking and no addition of media). Flow cytometry analysis was performed at the end of the 7-day expansion. Cells were stained with PE-labeled anti-human CD45RA (BD Biosciences) and APC-labeled anti-human CD34 (BD Biosciences) and analyzed using Intellicyt IQue cytometer equipped with ForeCyt software. Gates were drawn around the populations of interest to obtain cell numbers and relative proportions. The EC1.5 value, which is the concentration at which the compound/vehicle ratio is greater or equal to 1.5, was calculated by plotting the CD34+ cell number against concentrations (log-scale) in a 4-PL curve and fitting the curve using IDBS XLfit (set model 251) in Microsoft Excel.

SMILES	pIC50 [1]	EC1.5 [2] [µM]
Cc1ccc(NC(=O)c2sc3ccc(C(F)(F)F)nc3c2N)cc1	6.30 to 7.30	>5
Nc1c(C(=O)Nc2ccc(Br)cc2)sc2ccc(C(F)(F)F)nc12	6.30 to 7.30	>5
Nc1c(C(=O)Nc2cccnn2)sc2ncc(C(F)(F)F)cc12	> 7.30	>5
Nc1c(C(=O)Nc2ccc(Cl)cc2)sc2ccc(C(F)(F)F)nc12	6.30 to 7.30	1 to 5
